Data as given in publication PMC4184702 (Pharmacology Research & Perspectives, 2014).

The chains behind the UniProt entries cited, without tags or fusion partners. Where a name states a change or a piece, a line headed by the entry shows the natural chain unless it says otherwise. Residues count along the entry.
UniProt P17787, 26-502: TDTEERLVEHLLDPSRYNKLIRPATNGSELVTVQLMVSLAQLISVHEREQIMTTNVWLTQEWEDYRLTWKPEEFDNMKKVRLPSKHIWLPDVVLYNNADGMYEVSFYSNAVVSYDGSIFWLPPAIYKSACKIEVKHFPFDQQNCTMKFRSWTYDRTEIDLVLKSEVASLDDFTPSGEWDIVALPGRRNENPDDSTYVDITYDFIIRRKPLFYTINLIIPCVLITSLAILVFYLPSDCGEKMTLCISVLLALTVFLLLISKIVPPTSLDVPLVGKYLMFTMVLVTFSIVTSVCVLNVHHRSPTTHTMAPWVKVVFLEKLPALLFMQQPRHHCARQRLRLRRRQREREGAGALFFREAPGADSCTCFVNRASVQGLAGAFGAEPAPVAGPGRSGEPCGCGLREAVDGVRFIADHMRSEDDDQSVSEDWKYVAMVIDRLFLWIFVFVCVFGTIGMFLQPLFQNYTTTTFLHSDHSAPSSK
UniProt P43681, 29-627 limits assumed: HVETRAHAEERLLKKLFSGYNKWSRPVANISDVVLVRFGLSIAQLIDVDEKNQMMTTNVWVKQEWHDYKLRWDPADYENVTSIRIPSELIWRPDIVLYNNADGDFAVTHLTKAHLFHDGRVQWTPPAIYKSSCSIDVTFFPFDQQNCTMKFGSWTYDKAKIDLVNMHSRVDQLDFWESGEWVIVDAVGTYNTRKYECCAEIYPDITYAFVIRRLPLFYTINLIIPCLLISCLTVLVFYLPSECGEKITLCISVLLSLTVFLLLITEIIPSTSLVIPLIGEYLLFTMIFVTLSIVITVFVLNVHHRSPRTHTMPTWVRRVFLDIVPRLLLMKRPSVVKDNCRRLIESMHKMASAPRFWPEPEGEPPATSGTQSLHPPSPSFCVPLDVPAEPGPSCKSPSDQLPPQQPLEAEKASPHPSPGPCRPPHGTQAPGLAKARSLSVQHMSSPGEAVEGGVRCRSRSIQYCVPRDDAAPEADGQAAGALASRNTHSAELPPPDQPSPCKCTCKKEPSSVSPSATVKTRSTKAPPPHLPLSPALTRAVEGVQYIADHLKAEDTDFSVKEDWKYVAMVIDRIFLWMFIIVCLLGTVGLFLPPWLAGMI
UniProt P32297: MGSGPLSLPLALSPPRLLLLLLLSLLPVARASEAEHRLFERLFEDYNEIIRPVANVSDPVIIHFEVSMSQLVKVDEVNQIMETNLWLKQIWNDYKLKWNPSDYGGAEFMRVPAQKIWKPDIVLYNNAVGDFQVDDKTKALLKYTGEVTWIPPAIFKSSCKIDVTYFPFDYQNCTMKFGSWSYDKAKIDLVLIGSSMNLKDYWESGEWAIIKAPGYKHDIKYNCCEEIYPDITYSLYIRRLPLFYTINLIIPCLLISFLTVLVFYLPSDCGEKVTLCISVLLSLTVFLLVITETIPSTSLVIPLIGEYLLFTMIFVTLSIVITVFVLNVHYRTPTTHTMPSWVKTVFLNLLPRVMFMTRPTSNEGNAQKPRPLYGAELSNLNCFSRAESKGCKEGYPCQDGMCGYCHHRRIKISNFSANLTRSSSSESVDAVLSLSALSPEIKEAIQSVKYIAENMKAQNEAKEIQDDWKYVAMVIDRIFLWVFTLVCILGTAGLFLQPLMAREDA
UniProt Q15825: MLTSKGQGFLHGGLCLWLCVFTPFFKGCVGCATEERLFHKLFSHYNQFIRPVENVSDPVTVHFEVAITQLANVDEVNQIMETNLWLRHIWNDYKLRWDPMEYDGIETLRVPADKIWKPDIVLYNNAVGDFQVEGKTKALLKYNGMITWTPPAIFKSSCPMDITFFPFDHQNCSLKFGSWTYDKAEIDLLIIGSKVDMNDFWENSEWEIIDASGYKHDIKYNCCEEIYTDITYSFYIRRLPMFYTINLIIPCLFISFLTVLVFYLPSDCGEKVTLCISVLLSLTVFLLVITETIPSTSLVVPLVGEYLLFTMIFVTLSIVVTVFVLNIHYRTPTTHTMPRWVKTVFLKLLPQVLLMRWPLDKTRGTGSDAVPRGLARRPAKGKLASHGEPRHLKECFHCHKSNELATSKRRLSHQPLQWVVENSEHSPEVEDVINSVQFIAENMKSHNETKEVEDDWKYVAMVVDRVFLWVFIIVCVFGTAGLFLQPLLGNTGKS

Experiments:
Format in all cases: cell-based
[1] = target: T1, HS (high sensitivity) α4β2-nAChRs (Homo sapiens, UniProt P17787+P43681); test: 86Rb+ ion efflux assay, HS α4β2 efficacy by regression on sazetidine-A efficacy; conditions: relative to carbamylcholine
T1 construct: expressed in transfected cells; host or cells: SH-EP1 human epithelial cells (SH-EP1-hα4β2)
Description: (§1) Cell lines naturally or heterologously expressing specific, functional, human nAChR subtypes were used. The human clonal cell line TE671/RD naturally expresses human muscle-type α1*-nAChRs, containing α1, β1, γ, and δ subunits, with function detectable using ^86Rb^+ efflux assays. […] These cells heterologously express human nAChR chimeric (α6/3) subunits (wherein the extracellular, N-terminal, ligand-binding domain of the human nAChR α6 subunit replaces that domain in the nAChR α3 subunit) along with human β2 and β3 subunits. […] Cells were passaged once a week by splitting just-confluent cultures 1/300 (TE671/RD), 1/10 (SH-SY5Y), or 1/40 (transfected SH-EP1) in serum-supplemented medium to maintain log-phase growth.
(§2) One newer modification on these techniques involves low temperature incubation before assays to increase the surface expression of high sensitivity (HS) relative to low sensitivity (LS) α4β2 nAChRs and to enhance surface expression of (α6/3)β2β3-nAChRs. […] In brief, this allows us to determine efficacies of test compounds at LS and HS α4β2 nAChRs, respectively, as the ordinate values of the linear regressions at abscissa values of 0% and 100% of sazetidine-A efficacy.
(§3) Results are normalized to responses to a fully efficacious concentration of carbamylcholine (see Materials and Methods for details). […]

[2] = target: T2, LS (low sensitivity) α4β2-nAChRs (Homo sapiens, UniProt P17787+P43681); test: 86Rb+ ion efflux assay, LS α4β2 efficacy by regression on sazetidine-A efficacy; conditions: relative to carbamylcholine
T2 construct: expressed in transfected cells; host or cells: SH-EP1 human epithelial cells (SH-EP1-hα4β2)
Description: as §1, §2, §3

[3] = target: T3, human (α6/3)β2β3-nAChR (Homo sapiens, UniProt P17787+P32297+Q15825); test: 86Rb+ ion efflux assay, SH-EP1-h(α6/3)β2β3 cells
T3 construct: expressed in transfected cells; host or cells: SH-EP1 human epithelial cells (SH-EP1-h(α6/3)β2β3)
Description: as §1, §2, §3

With `CN1CCC[C@H]1c1cccnc1` [Nicotine] the “Agonism α4β2-nAChR HS Efficacy” value [1] was 124 ± 8.5%, the “Agonism α4β2-nAChR LS Efficacy” value [2] was 70 ± 5.9% and the “Agonism (α6/3)β2β3-nAChR Efficacy” value ([3]; normalized to a full agonist) was 56 ± 0.06. The “Inactivation (α6/3)β2β3-nAChR Efficacy” value ([3]; normalized to a full antagonist) was 26 ± 1.4%.
